Here are results for one compound from ChEMBL document CHEMBL1926502, “The discovery of UK-369003, a novel PDE5 inhibitor with the potential for oral bioavailability and dose-proportional pharmacokinetics” (Bioorg Med Chem, 2012).

Structures are written as SMILES.

Series [1] is filed under the species Homo sapiens. Description: Selectivity ratio of IC50 for PDE6 to IC50 for human PDE5. An outline of the steps: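 PDE5 was prepared from human corpus cavernosum and cone PDE6 from dog retina (anion-exchange fraction). IC50s came from concentration–response curves in a scintillation proximity assay with [3H]/unlabelled cGMP (1:3) at about 1/3 Km, so IC50 = Ki. Buffer was 20 mM Tris-HCl pH 7.4, 5 mM MgCl2, 1 mg/mL BSA; 30–60 min at 30 °C, <30% turnover. Ratio = PDE6 IC50/PDE5 IC50.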

Series [2] relates to Caco-2. Put plainly: Efflux ratio of apparent permeability from apical to basolateral to basolateral to apical side of human Caco2 cells. It is filed as ADME, cell-based. An outline of the steps: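 Caco-2 cell monolayers; flux measured in both directions, and the efflux ratio is taken as apical→basolateral flux divided by basolateral→apical flux.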

In the case of `CCOc1ncc(S(=O)(=O)N2CCN(CC)CC2)cc1-c1nc2c(CC)n(CCOC)nc2c(=O)[nH]1`, the Ratio IC50 in series [1] came out at 117. Further, the Ratio in series [2] turned out to be 1.5.
